Reference: PubChem BioAssay (NCI)
This is a selection; strong and weak results do not stand in their true shares.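 Plates (96-well) were seeded with cells, treated with compound at one concentration, and incubated for 48 hours before percent growth was determined.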 The source made the active and inactive calls. Rule for the calls: active = growth percent below 10; inactive = the rest.

Tests used:
Assay in all cases: NCI-60 one-dose screen, 48 h (100 = growth as untreated, 0 = no growth, -100 = all killed)
Conditions in all cases: 10 µM
[1] = tested on: NCI-H23 lung
[2] = tested on: NCI-H226 lung
[3] = tested on: NCI-H322M lung
[4] = tested on: HOP-62 NSCLC
[5] = tested on: NCI-H460 lung
[6] = tested on: HOP-92 NSCLC
[7] = tested on: NCI-H522 lung
[8] = tested on: A549/ATCC NSCLC
[9] = tested on: 786-0 renal
[10] = tested on: COLO 205 colon
[11] = tested on: DU-145 prostate
[12] = tested on: K-562 leukemia
[13] = tested on: MALME-3M melanoma
[14] = tested on: MDA-MB-231 breast
[15] = tested on: RXF 393 renal
[16] = tested on: SF-268 CNS
[17] = tested on: SF-295 CNS
[18] = tested on: SF-539 CNS
[19] = tested on: UACC-257 melanoma
[20] = tested on: M14 melanoma

Measured: growth

O=C(O)Cc1c[nH]c2ccc(N(CCCl)CCCl)cc12
inactive: [1] 104% | [2] 98.5% | [3] 129% | [4] 108% | [5] 94.1% | [6] 79.2% | [7] 95.1% | [8] 108% | [9] 107% | [10] 115% | [11] 107% | [12] 105% | [13] 121% | [14] 93.8% | [15] 109% | [16] 111% | [17] 89.6% | [18] 106% | [19] 106% | [20] 105%

O=C(O)CCCCc1ccc(N(CCCl)CCCl)cc1
inactive: [1] 85.6% | [2] 93.5% | [3] 103% | [4] 85.5% | [5] 56.8% | [6] 87.1% | [7] 83.8% | [8] 73.3% | [9] 92.4% | [10] 89.1% | [11] 91.3% | [12] 91.3% | [13] 112% | [14] 102% | [15] 95.5% | [16] 73.5% | [17] 90.8% | [18] 85.2% | [19] 101% | [20] 87.7%

COc1cc(CN(CCCl)CCBr)cc(OC)c1
inactive: [1] 104% | [2] 99.3% | [3] 113% | [4] 99.7% | [5] 104% | [6] 113% | [7] 82.1% | [8] 98.3% | [9] 111% | [10] 116% | [11] 112% | [12] 108% | [13] 111% | [14] 113% | [15] 127% | [16] 101% | [17] 99.4% | [18] 96% | [19] 122% | [20] 109%

CCC(C)(C)c1ccc(O)c(CN(CCCl)CCCl)c1
inactive: [1] 104% | [2] 106% | [3] 101% | [4] 103% | [5] 106% | [6] 109% | [7] 93.4% | [8] 105% | [9] 90.6% | [10] 107% | [11] 108% | [12] 106% | [13] 109% | [14] 119% | [15] 110% | [16] 96.7% | [17] 107% | [18] 96.8% | [19] 101% | [20] 89.1%

COc1cc(CN(CCCl)CCCl)cc(OC)c1
inactive: [1] 97.2% | [2] 96% | [3] 106% | [4] 95.8% | [5] 109% | [6] 91.2% | [7] 79.2% | [8] 89.9% | [9] 99.5% | [10] 108% | [11] 105% | [12] 85.2% | [13] 95% | [14] 109% | [15] 100% | [16] 98.4% | [18] 101% | [19] 85.2% | [20] 97.3%

C1CCNCC1.O=C(O)C(O)c1ccc(N(CCCl)CCCl)cc1 (stereo unspecified)
inactive: [1] 106% | [2] 78.5% | [3] 98.5% | [4] 104% | [5] 95.2% | [6] 89.9% | [7] 87.5% | [8] 102% | [9] 108% | [10] 94.4% | [11] 103% | [12] 88.2% | [13] 97.4% | [14] 104% | [15] 96.7% | [16] 91.4% | [17] 101% | [18] 98.4% | [19] 111% | [20] 100%

O=C(O)CCc1ccc(CSCCCl)cc1
inactive: [1] 107% | [2] 103% | [3] 105% | [4] 106% | [5] 108% | [6] 103% | [7] 99.1% | [8] 106% | [9] 102% | [10] 107% | [11] 105% | [12] 97.2% | [13] 102% | [14] 98.6% | [15] 114% | [16] 101% | [17] 100% | [18] 98% | [19] 116% | [20] 105%

Cc1ccc(N(CCCl)CCCl)cc1
inactive: [1] 57.1% | [2] 85.2% | [3] 103% | [4] 62.9% | [5] 25.4% | [6] 77.1% | [7] 71.4% | [8] 62.7% | [9] 31.5% | [10] 86.9% | [11] 36.7% | [12] 94.8% | [13] 90.5% | [14] 131% | [15] 93.8% | [16] 48.7% | [17] 37.6% | [18] 47.2% | [19] 102% | [20] 59%

Cc1ccc2oc(=O)cc(CN(CCCl)CCCl)c2c1
inactive: [1] 92.9% | [2] 90.5% | [3] 106% | [4] 91.7% | [5] 89.5% | [6] 106% | [7] 74.6% | [8] 96.2% | [9] 109% | [10] 98.8% | [11] 98.7% | [12] 113% | [13] 107% | [14] 95.5% | [15] 86.5% | [16] 91.4% | [17] 102% | [18] 97.5% | [19] 92% | [20] 98.1%

Cc1ccc(CN(CCCl)CCCl)cc1C
inactive: [1] 102% | [2] 93.9% | [3] 98.8% | [4] 106% | [5] 96.3% | [6] 94.9% | [7] 72.1% | [8] 104% | [9] 97% | [10] 107% | [11] 106% | [12] 100% | [13] 85.9% | [14] 105% | [15] 91.7% | [16] 109% | [18] 108% | [19] 102% | [20] 108%

NC(=O)C1(Nc2ccccc2)CCN(Cc2ccccc2)CC1
inactive: [1] 101% | [2] 96% | [3] 98.1% | [4] 98% | [5] 117% | [6] 96% | [7] 95.5% | [8] 103% | [9] 103% | [10] 113% | [11] 118% | [12] 109% | [13] 108% | [14] 104% | [15] 117% | [16] 114% | [17] 105% | [18] 104% | [19] 108% | [20] 95.9%

Fc1ccc(CCN(CCCl)CCCl)cc1
inactive: [1] 115% | [2] 96.7% | [3] 104% | [4] 106% | [5] 104% | [6] 104% | [7] 70.7% | [8] 97.8% | [9] 104% | [10] 112% | [11] 112% | [12] 110% | [13] 98.6% | [14] 110% | [15] 100% | [16] 108% | [18] 101% | [19] 92.9% | [20] 101%

Cc1cccc(C(=O)N(CCCl)CCCl)c1
inactive: [1] 114% | [2] 97.7% | [3] 100% | [4] 112% | [5] 132% | [6] 80.7% | [7] 91.4% | [8] 110% | [9] 103% | [10] 125% | [11] 115% | [12] 106% | [13] 98.1% | [14] 119% | [15] 101% | [16] 110% | [18] 92.7% | [19] 117% | [20] 104%

ClCCN1[C@@H](CCl)CC[C@@H]1c1ccccc1
inactive: [1] 90.4% | [2] 107% | [3] 117% | [4] 103% | [5] 88.4% | [6] 99.8% | [7] 86.3% | [8] 97.3% | [9] 101% | [10] 105% | [11] 113% | [12] 84.8% | [13] 117% | [14] 107% | [15] 106% | [16] 98.4% | [17] 112% | [18] 99.1% | [19] 101% | [20] 100%

O=c1[nH]cc(CN(CCCl)CCCl)c(=O)[nH]1
inactive: [1] 99% | [2] 98.3% | [3] 96.2% | [4] 99.9% | [5] 106% | [6] 102% | [7] 97.6% | [8] 99.7% | [9] 102% | [10] 106% | [11] 107% | [12] 107% | [13] 99.7% | [14] 98.8% | [15] 113% | [16] 103% | [17] 100% | [18] 104% | [19] 100% | [20] 100%

N#CC1(Nc2ccc(Cl)cc2)CCN(Cc2ccccc2)CC1
inactive: [1] 79.2% | [2] 61.1% | [3] 80.3% | [4] 86.1% | [5] 47.2% | [6] 74.8% | [7] 55.7% | [8] 55.2% | [9] 59.6% | [10] 66.4% | [11] 90.9% | [12] 31.5% | [13] 95.1% | [14] 41.6% | [15] 98.8% | [16] 73.8% | [17] 39.6% | [18] 77.9% | [19] 77.1% | [20] 23.2%
